Data taken from patent publication US20230192847A1.

How the values were obtained:
[1] = molecular target: Human TIGIT-His/Flag (human); assay: SPR 25C, antibody captured, TIGIT analyte
[2] = molecular target: Cyno TIGIT-Flag/His (cynomolgus); assay: SPR 25C, antibody captured, TIGIT analyte
[3] = molecular target: Human TIGIT-His/Flag (human); assay: HTRF, 647-TIGIT vs biotin-CD155

| Substance | Kd [1] [nM] | Kd [2] [nM] | IC50 [3] [nM] |
| --- | --- | --- | --- |
| KY09 (antibody) | 2.35 | 17.7 | 2.22 |
| KY10 (antibody) | 0.57 | 2.64 | 4.29 |
| KY11 (antibody) | 1.89 | 12.1 | 2.27 |
| KY17 (antibody) | 7.11 | 30.6 | 2.08 |
| KY18 (antibody) | 3.99 | 14.2 | 1.89 |
